Laboratory results as given in paper PMC6374920, “Synthesis and biological evaluation of 3-arylcoumarins as potential anti-Alzheimer's disease agents” (Journal of Enzyme Inhibition and Medicinal Chemistry, 2019).

Sequences of proteins named here, by UniProt entry; tags and fusion partners are left off. Residues count along the entry.
UniProt P81908, whole entry: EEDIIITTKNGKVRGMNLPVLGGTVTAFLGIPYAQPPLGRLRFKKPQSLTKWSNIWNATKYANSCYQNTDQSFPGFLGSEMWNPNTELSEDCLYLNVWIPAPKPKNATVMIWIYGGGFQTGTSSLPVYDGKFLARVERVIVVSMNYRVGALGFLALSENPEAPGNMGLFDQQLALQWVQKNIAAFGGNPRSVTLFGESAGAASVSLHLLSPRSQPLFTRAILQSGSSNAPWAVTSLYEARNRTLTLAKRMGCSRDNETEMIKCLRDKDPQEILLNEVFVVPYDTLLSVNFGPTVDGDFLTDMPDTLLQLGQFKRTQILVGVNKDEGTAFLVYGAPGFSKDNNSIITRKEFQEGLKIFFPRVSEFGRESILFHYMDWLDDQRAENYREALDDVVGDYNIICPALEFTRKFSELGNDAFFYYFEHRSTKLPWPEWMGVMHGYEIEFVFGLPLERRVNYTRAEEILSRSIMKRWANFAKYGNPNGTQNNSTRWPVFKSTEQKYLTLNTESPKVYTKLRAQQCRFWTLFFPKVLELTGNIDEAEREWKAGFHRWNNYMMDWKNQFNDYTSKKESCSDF
UniProt P19643, whole entry: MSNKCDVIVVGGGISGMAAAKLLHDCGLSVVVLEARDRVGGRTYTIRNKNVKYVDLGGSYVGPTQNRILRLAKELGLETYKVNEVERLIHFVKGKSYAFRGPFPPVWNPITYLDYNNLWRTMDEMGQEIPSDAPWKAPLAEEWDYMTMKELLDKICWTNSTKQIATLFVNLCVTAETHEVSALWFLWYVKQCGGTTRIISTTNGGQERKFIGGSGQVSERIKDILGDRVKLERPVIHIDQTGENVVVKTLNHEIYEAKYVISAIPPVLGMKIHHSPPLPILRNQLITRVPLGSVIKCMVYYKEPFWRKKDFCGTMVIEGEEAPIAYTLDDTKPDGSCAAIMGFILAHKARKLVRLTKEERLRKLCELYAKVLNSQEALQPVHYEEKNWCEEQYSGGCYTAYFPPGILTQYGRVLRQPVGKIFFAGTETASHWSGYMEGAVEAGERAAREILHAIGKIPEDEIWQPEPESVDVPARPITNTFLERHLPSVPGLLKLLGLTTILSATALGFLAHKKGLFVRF
UniProt O42275, 24-633 limits assumed: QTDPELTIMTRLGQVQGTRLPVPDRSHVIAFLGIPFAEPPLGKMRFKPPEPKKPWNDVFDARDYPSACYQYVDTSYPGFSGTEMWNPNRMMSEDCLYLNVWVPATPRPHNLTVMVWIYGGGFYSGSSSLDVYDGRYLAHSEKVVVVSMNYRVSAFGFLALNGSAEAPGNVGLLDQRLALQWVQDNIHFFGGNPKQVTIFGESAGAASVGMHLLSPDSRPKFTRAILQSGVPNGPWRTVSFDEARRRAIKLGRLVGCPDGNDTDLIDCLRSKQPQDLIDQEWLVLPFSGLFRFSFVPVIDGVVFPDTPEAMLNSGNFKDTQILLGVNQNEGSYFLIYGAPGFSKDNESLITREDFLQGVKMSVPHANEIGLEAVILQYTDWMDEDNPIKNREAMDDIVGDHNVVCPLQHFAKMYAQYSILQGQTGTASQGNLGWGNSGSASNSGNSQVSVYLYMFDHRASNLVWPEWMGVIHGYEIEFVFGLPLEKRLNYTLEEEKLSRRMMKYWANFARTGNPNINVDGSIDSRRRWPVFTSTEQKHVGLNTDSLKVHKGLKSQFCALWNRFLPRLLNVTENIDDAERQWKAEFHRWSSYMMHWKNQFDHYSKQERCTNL

How the values were obtained:
BuChE from horse serum = BuChE from horse serum (Equus caballus, UniProt P81908)
MAO-B = MAO-B (Rattus norvegicus, UniProt P19643); experiment: In vitro monoamine oxidase inhibitory activity (Holt method, crude enzyme from rat liver); format: biochemical; settings: read-out: IC50 value MAO-B inhibitory activity; crude enzyme from Wistar rat liver; mean ± SD (n = 3)
AChE from electric eel = AChE from electric eel (Electrophorus electricus, UniProt O42275)
[1] = In vitro antioxidant activity, FRAP assay; settings: for FRAP value relative to vitamin C: folds of the value of vitamin C; for FRAP value Antioxidant activity: FeSO4 as standard, mean ± SD (n = 3)
Protocol: The total antioxidant capacity of the 3-arylcoumarin compounds was measured by the FRAP (the Ferric Reducing Ability of Plasma) assay of Benzie et al.[29] with slight modifications. This method is based on the reduction of colourless Fe(III)-TPTZ(2,4,6-Tris(2-pyridyl)-s-triazine) complex to coloured Fe(II)-TPTZ complex by the compounds. FRAP working solution (300 mmol/L acetate buffer, 10 mmol/L TPTZ, 20 mmol/LFeCl3) was ready to use. A hundred microlitres of the sample solution was added to 3 ml of FRAP reagent and then incubated at 37 °C for 15 min. The experiments were repeated for three times. The absorbance was measured at 593 nm to clarify the changes. The standard curve was drawn with FeSO4 as standard material, and the regression equation was obtained. With 1.0 mmol/L FeSO4 as standard, the antioxidant activity of the sample is expressed in millimoles of […] required to achieve the same absorbance.

zebrafish juveniles = experiment: Zebrafish behavioural experiment (AlCl3-induced Alzheimer's disease model); settings: AlCl3-induced zebrafish AD model; 10, 50, 100, 1000 µg/ml

Compound	IC50 (BuChE from horse serum) [µM]	IC50 (MAO-B) [µM]	IC50 (AChE from electric eel) [µM]	FRAP value relative to vitamin C [1]	FRAP value Antioxidant activity [1] [mmol/g]	effect in zebrafish behavioural experiments (total distance of movement) (zebrafish juveniles)
COc1ccc(-c2cc3ccc(O)c(O)c3oc2=O)cc1	26.5	562	13.3	3–11 folds	–	–
O=c1oc2c(O)c(O)ccc2cc1-c1ccccc1	16.1	73.5	18	3–11 folds	–	–
O=c1oc2c(O)cccc2cc1-c1ccc(O)cc1	21.2	> 700	68.2	–	0.66 ± 0.08	–
O=c1oc2c(O)c(O)ccc2cc1-c1ccc(Br)cc1	20.2	> 700	8.75	3–11 folds	–	–
O=c1oc2ccc(O)cc2cc1-c1ccc(O)cc1	75.6	> 700	40.4	–	0.41 ± 0.08	–
O=c1oc2ccccc2cc1-c1ccc(Br)cc1	> 100	> 700	–	–	0.42 ± 0.06	did not show significant effects
COc1ccc(-c2cc3ccc(O)c(O)c3oc2=O)cc1OC	24.8	63.4	8.45	3–11 folds	–	–
Cc1ccc(C)c(-c2cc3ccc(O)c(O)c3oc2=O)c1	9.92	> 700	13.7	3–11 folds	–	–
O=c1oc2c(O)c(O)ccc2cc1-c1ccc(O)c(O)c1	–	–	–	3–11 folds	–	–
COc1ccc(-c2cc3cccc(O)c3oc2=O)cc1	46.4	503	–	–	2.98 ± 0.22	–
O=c1oc2cc(O)ccc2cc1-c1ccc(F)cc1	29.3	> 700	74.3	–	0.38 ± 0.07	–
O=c1oc2c(O)cccc2cc1-c1ccccc1	–	> 700	–	–	0.16 ± 0.05	did not show significant effects
O=c1oc2cc(O)ccc2cc1-c1ccc(O)c(O)c1	70.9	330	30.9	–	8.41 ± 0.11	–
Cc1ccc(-c2cc3ccc(O)c(O)c3oc2=O)cc1	13.2	> 700	12.6	3–11 folds	–	–
O=c1oc2cc(O)cc(O)c2cc1-c1ccc(O)cc1	2.76	205	16.4	–	2.29 ± 0.02	–
Cc1ccc(-c2cc3ccc(O)cc3oc2=O)cc1	21.8	> 700	82.8	–	0.35 ± 0.05	–
O=c1oc2c(O)c(O)ccc2cc1-c1ccc(O)cc1	18.9	65.8	13.1	3–11 folds	–	–
COc1ccc2oc(=O)c(-c3ccc(O)cc3)cc2c1	10.6	> 700	–	–	1.47 ± 0.04	–
O=c1oc2c(O)c(O)ccc2cc1-c1ccc(F)cc1	25.8	232	27.1	3–11 folds	–	–
